The experiment deals with human MAP4K4 kinase domain (Homo sapiens, UniProt O95819). The experiment is described as follows: MAP4K4 kinase activity, CisBio HTRF Transcreener ADP assay. The conditions noted are these: read-out: MAP4K4; IC50 category; ATP at Km (10 μM), 0.5 nM kinase domain, 2 h. The text has this:
Compounds of the present invention were screened for their inhibitory activity against MAP4K4, versus selected off-target hits found with early members of this chemical series. MAP4K4 kinase activity was monitored using the CisBio HTRF Transcreener ADP assay, a competitive immunoassay with a reproducible Z′>0.6. In the detection step, endogenous ADP and d2-labeled ADP compete for binding an anti-ADP monoclonal antibody labelled with Eu^3+ cryptate. A ratiometric fluorescent read-out is used at 665 and 620 nm. Reactions were performed in the presence of 1% DMSO with ATP added at Km (10 μM), 0.5 nM human MAP4K4 kinase domain (Invitrogen), 1 μM biotin-myelin basic protein as substrate (Invitrogen), and extension of reaction time to 2 h. Assays were run in Greiner low volume plates with a final reaction volume of 10 μl. The MAP4K4 inhibition data are provided in Table 41 below for selected compounds of the present invention. The data has been categorised based on the IC50 value of the compound as “A”, “B” or “C”. IC50: A≤100 nM; 100 nM<B≤1 μM; 1 μM<C; nd=not determined.

Chains of the proteins cited; added tags and fusions are not shown. Residues count along the entry.
UniProt O95819, 25-289 limits assumed: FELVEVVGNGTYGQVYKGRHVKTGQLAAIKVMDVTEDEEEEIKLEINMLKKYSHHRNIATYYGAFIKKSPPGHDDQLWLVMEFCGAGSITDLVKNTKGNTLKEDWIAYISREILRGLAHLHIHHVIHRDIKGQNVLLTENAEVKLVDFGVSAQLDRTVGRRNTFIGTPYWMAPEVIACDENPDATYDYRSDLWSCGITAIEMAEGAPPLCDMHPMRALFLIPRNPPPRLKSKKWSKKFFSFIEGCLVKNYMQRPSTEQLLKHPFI

Regarding `CC(C)(O)COc1ccc(-c2cn(-c3ccc[n+]([O-])c3)c3nc[nH]c(=O)c23)cc1`, the IC50 was in the range of 100 to 1000 nM. As for `CC(C)(O)CCOc1ccc(-c2cn(-c3cccnc3)c3cc[nH]c(=O)c23)cc1`, the figure is 100 to 1000 nM. To `COCCOc1ccc(-c2cn(-c3ccc(N)nc3)c3nc[nH]c(=O)c23)cc1` belongs less than 100 nM.

For the origin of these results see US12247045B2, “MAP4K4 inhibitors” (Imperial College Innovations Limited, priority 2018, dated 2025).
